The record followed here is BindingDB's records for doi:10.1021/jm950498t (Virginia Commonwealth University, 1996).

This test in a line: Binding affinity towards 5-hydroxytryptamine 1D receptor was determined in calf striatum homogenate.

By Ki is commonly meant a measure of affinity in units of concentration, obtained from inhibition or displacement.

Turning to `COc1ccc2[nH]cc(CCN(C)C)c2c1` [3-(2-DIMETHYLAMINOETHYL)-5-METHOXYINDOLE], the affinity, expressed as Ki, was 20 nM.
